{
  "source": "patent US20210268122A1",
  "about": "“INHIBITION OF S[…] PROTEIN INHIBITORS OF CYSTEINE PROTEASES” (DYVE BIOSCIENCES, INC., priority 2017, published 2021)",
  "origin": "cited, not measured here",
  "key": {"PC3M (human prostate)": {"test_system": "PC3M (human prostate)", "settings": "PC3M tumors; cited from earlier work"}, "HCT116 (human colon)": {"test_system": "HCT116 (human colon)", "settings": "cited from earlier work"}, "[1]": {"test_system": "B16-F10 (murine melanoma)", "settings": "cited from earlier work"}, "[2]": {"test_system": "MDA-MB-231 (human breast)", "settings": "MDA-MB-231 tumors; cited from earlier work"}, "LL/2 (murine lung)": {"test_system": "LL/2 (murine lung)", "settings": "LL/2 tumors; cited from earlier work"}},
  "data": [
    {"smiles": "NCCCC[C@H](N)C(=O)O", "note": "[lysine buffer, lysine]", "values": [
      {"measurement": "metastasis under lysine buffers", "setting": "PC3M (human prostate)", "result": "potentially inhibited"},
      {"measurement": "response of tumors to lysine buffer therapy (metastasis)", "setting": "HCT116 (human colon)", "result": "resistant"},
      {"measurement": "response of tumors to lysine buffer therapy (metastasis)", "setting": "[1]", "result": "resistant"},
      {"measurement": "metastasis under lysine buffers", "setting": "[2]", "result": "potentially inhibited"},
      {"measurement": "response of tumors to lysine buffer therapy (metastasis)", "setting": "LL/2 (murine lung)", "result": "resistant"}
    ]}
  ]
}
